Tests used:
[1] = biological target: Collagen-Related Peptide (CRP); assay: ligand binding assay on CRP-coated wells, hD1D2-CaM at 10 µg/ml, no scFv
[2] = biological target: Collagen-Related Peptide (CRP); assay: ligand binding assay on CRP-coated wells, hD1D2-CaM at 2.5 µg/ml, no scFv
[3] = biological target: Collagen-Related Peptide (CRP); assay: ligand binding assay on CRP-coated wells, hD1D2-CaM at 1.0 µg/ml, no scFv

- mean absolute absorbance [1]: 0.265
- mean absolute absorbance [2]: 0.477
- mean absolute absorbance [3]: 0.26
Substance: hD1D2-CaM (from UniProt Q9HCN6 21-205; P0DP23 2-149) (receptor)

— patent publication US20060088531A1
